E-sel inducer: E-selectin induction on HUVECs; P16581; HUVEC E-selectin immunofluorescence imaging; normalized: neutral wells 0, TNF-alpha wells 100; activation, % at 7.58 µM; 0.37% of 260,000 active; AID 686992;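 active means mean E-selectin-positive cell signal at least 10% of the positive control, reached in at least 60% of replicates, without over 20% cell loss; inconclusive means no rule given, readout overlaps actives, possibly toxicity-flagged; inactive means the rest, including those meeting only one limit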
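Read-out: % PE-positive cells | Test system: HUVEC | Doses: One compound dose added by pin transfer | Buffer or medium: EGM-2 over gelatin coat | Signal: Immunofluorescence imaging | Benchmarks: TNF-alpha, DMSO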
DENV2 CPE: inhibitors of DENV2 cytopathic effect | DENV2-infected cells, cytopathic effect rescue, plate reader | CPE inhibition, % at 9.99 µM | 1.7% of 350,000 active; in the data active means CPE inhibition above about 20%, passing the limit was not always enough; inconclusive means no clear call, values can overlap the other calls; tested in BHK-21 cells
Yeast UUG start: yeast start codon fidelity modulation; activity score, % at 18.7 µM; actives 0.13% (n = 350,000); S. cerevisiae UUG-firefly luciferase reporter, luminescence/redox ratio; AID 602363;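 active means replicate mean at a twofold rise or more, about +100% in these data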;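 further: firefly luciferase made from a UUG start codon reports start codon fidelity; reporter light over untreated wells divided by growth signal over untreated wells; some hits fall short of that in this replicate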
Cneo AK release: Cryptococcus neoformans lysis via adenylate kinase release. 0.2% of 360,000 active. lysis activity, % at 15 µM. C. neoformans lysis, adenylate kinase release luminescence, 4 h; normalised: neutral wells 0, clomiphene wells 100;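 active means mean lysis activity across replicates of at least 80%, whatever share of replicates individually reach that level; inactive means mean lysis activity below 80%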
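Assay system: Cryptococcus neoformans yeast cells / Dosing: single-point compound dose / Timing: 4 h at 37 °C static, read 1 h later / Measured by: luminescence of released adenylate kinase using an AK detection reagent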
Each line names hits and unclear results; the compound was inactive in the other large screens. Shown are actives, neighbours in structure and some others; about 1.8% of the full set was active somewhere.

CCNC(=O)C[C@@H]1CC[C@H]2[C@@H](COc3ccc(NC(=O)Cc4ccccc4)cc3C(=O)N2C)O1	DENV2 CPE inconclusive
COc1ccccc1CNC(=O)C[C@H]1CC[C@H]2[C@@H](COc3ccc(NC(C)=O)cc3C(=O)N2C)O1	none
CCCNC(=O)C[C@H]1CC[C@@H]2[C@@H](COc3ccc(NC(=O)CCC)cc3C(=O)N2C)O1	none
COC(=O)C[C@@H]1CC[C@H]2[C@@H](COC[C@H](O)CN2S(=O)(=O)c2cn(C)cn2)O1	none (no result: Yeast UUG start)
CC(C)C(=O)Nc1ccc2c(c1)C(=O)N(C)[C@@H]1CC[C@@H](CC(=O)NC3CCCC3)O[C@@H]1CO2	none (no result: DENV2 CPE, Yeast UUG start, Cneo AK release)
Nc1c(Br)cc(Br)c2c1C(=O)c1c(cccc1S(=O)(=O)O)C2=O	E-sel inducer 123.9
Nc1c(C(=O)O)ccc2c1C(=O)c1ccccc1C2=O	none (no result: E-sel inducer, Yeast UUG start, Cneo AK release)
CCCc1c(C(=O)N/N=C/c2ccoc2)nnn1-c1nonc1N	DENV2 CPE 20.8
Cc1ccc(SCc2c(C(=O)N/N=C/c3ccoc3)nnn2-c2nonc2N)cc1	none (no result: E-sel inducer)
CN1C(=O)c2cc(NC(=O)NC3CCCC3)ccc2OC[C@@H]2O[C@@H](CC(=O)NC3CCC3)CC[C@@H]21	none
Nc1[nH]c(C(=O)c2ccccc2)c(-c2cc(F)ccc2Br)c1C(=O)NCCc1c[nH]c2ccccc12	DENV2 CPE 28.8 (no result: Yeast UUG start, Cneo AK release)
COc1ccc(C(=O)c2[nH]c(N)c(C(=O)NCCc3c[nH]c4ccccc34)c2-c2c(F)cccc2Cl)cc1	DENV2 CPE 66.8 (no result: Yeast UUG start, Cneo AK release)
COc1ccc(C(=O)c2[nH]c(N)c(C(=O)NCCc3c[nH]c4ccccc34)c2-c2ccccc2C(F)(F)F)cc1	none (no result: Yeast UUG start, Cneo AK release)
Nc1[nH]c(C(=O)c2ccccc2)c(-c2ccc(F)cc2)c1C(=O)NCCc1c[nH]c2ccccc12	none (no result: Yeast UUG start, Cneo AK release)
COc1ccccc1-n1c(SCC(=O)O)nc2c(sc(=S)n2-c2ccccc2C)c1=O	E-sel inducer 42.8
Cc1noc(C)c1S(=O)(=O)Nc1cccc2c1O[C@H](CN(C)C(=O)Nc1ccccc1)[C@H](C)CN([C@@H](C)CO)C2=O	none
C[C@@H]1CN([C@H](C)CO)C(=O)c2cc(NC(=O)Nc3ccccc3)ccc2O[C@H]1CN(C)S(=O)(=O)c1ccccc1	none
COc1ccccc1NC(=O)N[C@H]1CC[C@H](CCNS(=O)(=O)c2ccc(Cl)cc2)O[C@@H]1CO	none
COc1ccccc1NC(=O)N[C@H]1CC[C@H](CCNS(=O)(=O)c2ccc(C)cc2)O[C@H]1CO	DENV2 CPE 21.8 (no result: Yeast UUG start, Cneo AK release)
O=C(NC1CCCCC1)N[C@@H]1CC[C@@H](CCNS(=O)(=O)c2ccc(Cl)cc2)O[C@@H]1CO	none
O=C(NC1CCCCC1)N[C@@H]1CC[C@@H](CCNS(=O)(=O)c2ccc(Cl)cc2)O[C@H]1CO	Cneo AK release 93.6
COc1ccccc1NC(=O)N[C@H]1CC[C@@H](CCNS(=O)(=O)c2ccc(Cl)cc2)O[C@H]1CO	DENV2 CPE 20.5
O=C(Nc1ccc(C(=O)O)cc1)Nc1ccc([N+](=O)[O-])cc1	none
O=C(Nc1cc(C(F)(F)F)cc(C(F)(F)F)c1)Nc1cnn(-c2ccc([N+](=O)[O-])cc2)c1C(F)(F)F	E-sel inducer 73.9
N#Cc1ccc(-c2ccc([C@H]3[C@@H](CO)N4CCCCN(S(=O)(=O)c5ccccc5)C[C@@H]34)cc2)cc1	DENV2 CPE 45.7
CCS(=O)(=O)N1CCCCN2[C@H](CO)[C@@H](c3ccc(-c4ccc(C#N)cc4)cc3)[C@@H]2C1	DENV2 CPE 65.0, Cneo AK release 87.9
CCS(=O)(=O)N1CCCCN2[C@H](C1)[C@H](c1ccc(-c3cccc(C#N)c3)cc1)[C@@H]2CO	none
CCS(=O)(=O)N1CCCCN2[C@H](CO)[C@H](c3ccc(-c4ccc(C#N)cc4)cc3)[C@H]2C1	DENV2 CPE 55.5
Cc1noc(C)c1S(=O)(=O)Nc1ccc2c(c1)C(=O)N([C@@H](C)CO)C[C@@H](C)[C@H](CN(C)C(=O)CCC(F)(F)F)OCCCC[C@@H](C)O2	none
Cc1noc(C)c1NC(=O)N(C)C[C@H]1OCCCC[C@H](C)Oc2ccc(NS(=O)(=O)c3c(C)noc3C)cc2C(=O)N([C@H](C)CO)C[C@@H]1C	DENV2 CPE 34.1
Cc1noc(C)c1S(=O)(=O)Nc1ccc2c(c1)C(=O)N([C@@H](C)CO)C[C@H](C)[C@H](CN(C)C(=O)CCC(F)(F)F)OCCCC[C@H](C)O2	DENV2 CPE 33.9
COc1ccc(S(=O)(=O)Nc2ccc3c(c2)C(=O)N([C@H](C)CO)C[C@H](C)[C@@H](CN(C)C(=O)Nc2c(C)noc2C)OCCCC[C@@H](C)O3)cc1	DENV2 CPE 40.6

High-throughput results: PubChem, Broad Institute
